# Test results from PubChem BioAssay AID1022 (Emory University Molecular Libraries Screening Center, 2008).
# Sequences of proteins named here, by UniProt entry; tags and fusion partners are left off.
# UniProt Q07820, whole entry: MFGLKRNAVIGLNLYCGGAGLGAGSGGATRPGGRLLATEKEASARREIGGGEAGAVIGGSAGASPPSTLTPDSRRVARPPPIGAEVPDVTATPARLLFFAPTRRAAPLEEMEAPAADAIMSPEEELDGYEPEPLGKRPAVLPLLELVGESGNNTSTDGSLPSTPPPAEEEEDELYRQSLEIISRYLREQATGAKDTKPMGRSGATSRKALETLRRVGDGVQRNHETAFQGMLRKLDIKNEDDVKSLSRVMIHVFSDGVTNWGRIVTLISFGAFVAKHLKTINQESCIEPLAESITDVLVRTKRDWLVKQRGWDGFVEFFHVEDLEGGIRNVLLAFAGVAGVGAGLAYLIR
# The entries are a selection whose mix differs from that of the whole data set. Some salts or complexes appear as unconnected parts, following the source record. Activity calls are given as the source filed them.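 The calls were made as follows: active = compounds that cut the protein-peptide binding signal by more than 50% relative to plate controls in a single-dose test; inactive = the rest.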
# Molecular target: Induced myeloid leukemia cell differentiation protein Mcl-1 (Homo sapiens) (UniProt Q07820)
# Experiment: disruptors of Mcl-1 and Noxa BH3 peptide – biochemical, TR-FRET, 1536-well, primary screen (AID 1022);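 also: His-tagged Mcl-1 with rhodamine Noxa BH3 peptide and terbium anti-His antibody; 0% = Mcl-1 plus Noxa peptide wells and 100% = peptide-only wells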
# Settings: TR-FRET Mcl-1/Noxa peptide binding, 2 h; at 21.7 µM; hits give high values
row,Compound,inhibition
1,COc1ccc2c(c1O)-c1c(O)c(OC)cc3c1[C@H](C2)[N+](C)(C)CC3.O=[N+]([O-])c1cc([N+](=O)[O-])c([O-])c([N+](=O)[O-])c1[O-],inactive: 25.3%
2,O=C(OCCN1CCN(CCOCc2ccccc2)CC1)C(O)(c1ccccc1)c1ccccc1,inactive: 31.5%
3,O=C(OC1CN2CCC1CC2)c1ccc([N+](=O)[O-])cc1 (stereo not drawn),inactive: -0.02%
4,CC(C)c1ccc(OP(C)(=O)Nc2ccc(SC(F)(F)F)cc2)cc1 (stereo not drawn),inactive: -0.38%
5,CP(=O)(Nc1ccccc1F)Oc1ccccc1 (stereo not drawn),inactive: 14.8%
6,CCCCCOc1ccc(NP(C)(=O)Oc2ccc(Cl)cc2Cl)cc1 (stereo not drawn),inactive: 15.1%
7,CP(=O)(Nc1ccccc1)Oc1ccc(F)cc1 (stereo not drawn),inactive: 0.74%
8,CCN(CC)CCCOC(=O)C(O)(c1ccccc1)C1CCCCC1 (stereo not drawn),inactive: 15%
9,COc1ccc(OP(C)(=O)Nc2ccc(SC(F)(F)F)cc2)cc1 (stereo not drawn),inactive: 10.8%
10,CCOC(=O)c1ccc(NP(C)(=O)Oc2ccc(F)cc2)cc1 (stereo not drawn),inactive: 4.24%
11,O=[N+]([O-])c1cc([N+](=O)[O-])c(NCC2CCS(=O)(=O)C2)c([N+](=O)[O-])c1 (stereo not drawn),inactive: 12.9%
12,Cc1cc(-c2cccc3ccccc23)c(C)cn1.O=[N+]([O-])c1cc([N+](=O)[O-])c(O)c([N+](=O)[O-])c1,inactive: -6.93%
13,O=[N+]([O-])c1ccc(OP2(=O)COCCO2)cc1 (stereo not drawn),inactive: -11.9%
14,COc1ccc(NP(C)(=O)Oc2ccccc2OC)cc1 (stereo not drawn),inactive: 20.7%
15,CN(C)CCOC(=O)C(O)(c1ccccc1)C1CCCCC1 (stereo not drawn),inactive: 1.68%
16,COc1ccc(OP(C)(=O)Nc2cccc(Br)c2)cc1 (stereo not drawn),inactive: 0.8%
17,Cc1ccccc1NP(C)(=O)Nc1ccccc1C,inactive: 5.36%
18,CP(=O)(Nc1ccc2c(c1)OCCO2)Oc1ccccc1 (stereo not drawn),inactive: 5.21%
19,CCOP(C)(=S)SCC(=O)NC(C)(CC)C(=O)O (stereo not drawn),inactive: 18.4%
20,CP(=O)(Nc1ccc(SC(F)(F)F)cc1)Oc1ccc(F)cc1 (stereo not drawn),inactive: -3.28%
21,CN(C)C(=O)c1c([N+](=O)[O-])cc([N+](=O)[O-])cc1[N+](=O)[O-],inactive: 7.06%

row,Compound,inhibition
1,CP(=O)(Nc1ccc(Cl)cc1)Oc1ccc(F)cc1 (stereo not drawn),inactive: 0.79%
2,COc1ccccc1OP(C)(=O)Nc1ccccc1Br (stereo not drawn),inactive: -10.2%
3,CC(C)(C)c1ccc(OP(C)(=O)O)cc1,inactive: 5.32%
4,CCc1ccc(OP(C)(=O)Nc2cccnc2)cc1 (stereo not drawn),inactive: -2.12%
5,CP(=O)(Oc1ccccc1)N1CCOC1=O (stereo not drawn),inactive: 8.17%
6,O=C(OCCCN1CCCC1)C(O)(c1ccccc1)C1CCCCC1 (stereo not drawn),inactive: 8.69%
7,COc1ccc(OP(C)(=O)Nc2ccc(Br)cc2)cc1 (stereo not drawn),inactive: 14.1%
8,CCN(CC)CC(O)COC(=O)C(O)(c1ccccc1)C1CCCCC1 (stereo not drawn),inactive: 5.43%
9,CP(=O)(OC12CC3CC(CC(C3)C1)C2)OC12CC3CC(CC(C3)C1)C2,inactive: -9.45%
10,CCOC(=O)c1ccc(NP(C)(=O)Oc2ccc(Cl)cc2)cc1 (stereo not drawn),inactive: -1.64%
11,CP(=O)(Nc1ccc(Cl)cc1Cl)Oc1ccccc1 (stereo not drawn),inactive: 5.5%
12,CP(=O)(OCCOc1ccccc1)OCCOc1ccccc1,inactive: 20.4%
13,Cc1nc2ccc3ccccc3c2o1.O=[N+]([O-])c1cc([N+](=O)[O-])c(O)c([N+](=O)[O-])c1,inactive: 23.9%
14,COc1ccc(OP(C)(=O)Nc2ccccc2Br)cc1 (stereo not drawn),inactive: 10.1%
15,COc1ccccc1OP(C)(=O)Nc1ccc(C)c(C)c1 (stereo not drawn),inactive: -18.6%
16,Cc1cc(C)cc(OP(C)(=O)Nc2cccc(C(F)(F)F)c2)c1 (stereo not drawn),inactive: 12.4%
17,CCc1ccc(OP(C)(=O)O)cc1,inactive: 27.4%
18,COc1ccccc1OP(C)(=O)Nc1ccc(C)cc1C (stereo not drawn),inactive: -4.55%
19,CP(=O)(Nc1ccccn1)Oc1ccccc1 (stereo not drawn),inactive: 10.3%
20,Cc1c(NP(C)(=O)Oc2ccc(C(C)C)cc2)c(=O)n(-c2ccccc2)n1C (stereo not drawn),inactive: 1.35%
21,O=[N+]([O-])c1cc([N+](=O)[O-])c(Nc2ccccn2)c([N+](=O)[O-])c1,inactive: 10.9%

row,Compound,inhibition
1,CN(C)CCOC(=O)C(O)(c1ccccc1)C1CCCC1 (stereo not drawn),inactive: 13.2%
2,COc1ccc(OP(C)(=O)Nc2ccccn2)cc1 (stereo not drawn),inactive: 12.5%
3,COc1ccccc1OP(C)(=O)Nc1ccc(Br)cc1 (stereo not drawn),inactive: -1.27%
4,CCN(CC)CCCOC(=O)C(O)(c1ccccc1)c1ccccc1,inactive: -4.16%
5,COc1ccc(OP(C)(=O)Nc2cccc(F)c2)cc1 (stereo not drawn),inactive: 20.7%
6,COc1ccccc1OP(C)(=O)Nc1cc(Cl)ccc1C (stereo not drawn),inactive: 11.7%
7,Cc1cc(C)cc(OP(C)(N)=O)c1 (stereo not drawn),inactive: 1.62%
8,CCOC(=O)c1ccc(NP(C)(=O)Oc2ccccc2)cc1 (stereo not drawn),inactive: 11%
9,Cc1ccc(NP(C)(=O)Oc2ccccc2)c(C)c1 (stereo not drawn),inactive: 12.8%
10,COc1ccccc1OP(C)(=O)Nc1ccc(C)cc1 (stereo not drawn),inactive: -4.79%
11,Cc1cccc(C)c1OP(C)(N)=O (stereo not drawn),inactive: 27%
12,CC(C)(C)c1ccc(OP(C)(=O)Nc2ccc(SC(F)(F)F)cc2)cc1 (stereo not drawn),inactive: 8.4%
13,O=[N+]([O-])c1ccc2c(c1)C=Nc1ccccc1O2,inactive: 12.1%
14,COc1ccccc1OP(C)(=O)Nc1ccccc1 (stereo not drawn),inactive: 14.8%
15,CP(=O)(Nc1ccccc1Br)Oc1ccccc1 (stereo not drawn),inactive: 2.08%
16,CP(=S)(Nn1cnnc1)Oc1ccccc1 (stereo not drawn),inactive: 23.5%
17,CP(=O)(Nc1ccccn1)Oc1ccc(Cl)cc1 (stereo not drawn),inactive: -3.41%
18,CCOP(C)(=S)SCC(=O)NC(C)C(=O)O (stereo not drawn),inactive: 9.02%
19,CCOC(=O)c1ccc(NP(C)(=O)Oc2ccc(OC)cc2)cc1 (stereo not drawn),inactive: -4.72%
20,Cc1cc(C)cc(OP(C)(=O)Nc2ccc(SC(F)(F)F)cc2)c1 (stereo not drawn),inactive: 5.35%
21,CP(=O)(NC(=O)Nc1ccccc1)Oc1ccccc1 (stereo not drawn),inactive: -2.99%

row,Compound,inhibition
1,CCc1ccc(OP(C)(=O)N2CCN(c3ccc([N+](=O)[O-])cc3)CC2)cc1 (stereo not drawn),inactive: -7.49%
2,CP(=O)(Oc1ccccc1)OC(c1ccccc1)C(F)(F)F (stereo not drawn),inactive: 8.75%
3,CP(=O)(Nc1ccc(SC(F)(F)F)cc1)Oc1ccc(Cl)cc1 (stereo not drawn),inactive: 0.63%
4,Cc1cccc(C)c1OP(C)(=O)Nc1ccc(SC(F)(F)F)cc1 (stereo not drawn),inactive: -5.39%
5,Cc1nc2ccc3ccccc3c2s1.O=[N+]([O-])c1cc([N+](=O)[O-])c(O)c([N+](=O)[O-])c1,inactive: 25.7%
6,O=[N+]([O-])c1cc([N+](=O)[O-])c(-n2nnc3ccccc32)c([N+](=O)[O-])c1,active: 52.6%
7,CCCOc1ccc(NP(C)(=O)Oc2ccc(Cl)cc2)cc1 (stereo not drawn),inactive: 10.5%
8,CP(=O)(Nc1ccc(SC(F)(F)F)cc1)Oc1ccccc1 (stereo not drawn),inactive: 15%
9,CN1CCCCC1COC(=O)C1(O)c2ccccc2CCc2ccccc21 (stereo not drawn),inactive: 11.1%
10,COc1ccccc1OP(C)(=O)Nc1c(C)cccc1C (stereo not drawn),inactive: 2.95%
11,CCOC(=O)C(CC)C1=NC(C)(C)Cc2ccccc21.O=[N+]([O-])c1cc([N+](=O)[O-])c(O)c([N+](=O)[O-])c1 (stereo not drawn),inactive: 13.8%
12,O=[N+]([O-])c1cc([N+](=O)[O-])c(Nc2nnnn2CCO)c([N+](=O)[O-])c1,inactive: 11.1%
13,CC1=NCCc2c1[nH]c1ccccc21.O=[N+]([O-])c1cc([N+](=O)[O-])c(O)c([N+](=O)[O-])c1,inactive: 18.6%
14,O=C(O)c1cccc(Nc2c([N+](=O)[O-])cc([N+](=O)[O-])cc2[N+](=O)[O-])c1,inactive: 19.9%
15,Cc1cc(C)cc(OP(C)(=O)Nc2ccccn2)c1 (stereo not drawn),inactive: 8.43%
16,CP(=O)(Nc1cccc(Br)c1)Oc1ccccc1 (stereo not drawn),inactive: -3.03%
17,Cc1ccc(C)c(NP(C)(=O)Oc2ccccc2)c1 (stereo not drawn),inactive: -0.35%
18,Cc1cc(C)cc(OP(C)(=O)Nc2ccc(C)cc2C)c1 (stereo not drawn),inactive: -5.57%
19,CCOC(=O)c1ccc(NP(C)(=O)Oc2cc(C)cc(C)c2)cc1 (stereo not drawn),inactive: 6.14%
20,COc1ccccc1OP(C)(=O)Nc1cccc(Br)c1 (stereo not drawn),inactive: 24.4%
